Assays:
HCV 1b RNA replicon = assay: Luciferase assay for HCV genotype 1b replicon reporter cell lines; assay type: cell-based; conditions: inhibition of 50% of replication of the 1b replicon; for EC50: Hepatitis C virus, 48 h
hERG channel = hERG channel (Homo sapiens (Human), UniProt Q12809); assay: hERG channel assay (whole cell patch clamp)
[1] = test system: luciferase reporter-linked HCV genome in Huh 7.5 cells; assay: HCV replication assay with luciferase reporter-linked HCV genome, combinations with clemizole; assay type: cell-based; conditions: in combination with clemizole, Huh 7.5, 72 hours, MacSynergy II
HCV (genotype 4) = assay: Treatment of patients chronically infected with HCV genotype 4 with clemizole; assay type: in vivo; conditions: clemizole 100 mg p.o. BID alone, 4 weeks, 3 genotype 4 patients
HCV genotype 4 = assay: CLEAN 1.5 study in HCV genotype 4-infected patients; assay type: in vivo
HCV genotypes 1 and 2 = assay: CLEAN-1 study in HCV genotypes 1 and 2-infected patients; assay type: in vivo
[2] = test system: HCV genotype 2a infectious clone; assay: HCV genotype 2a infectious clone assay (Renilla luciferase); assay type: cell-based; conditions: Hepatitis C virus, read-out: 2a EC50

Sequences of proteins named here, by UniProt entry; tags and fusion partners are left off. A change or cut given only in a name is not applied to a line headed by its entry.
UniProt Q12809: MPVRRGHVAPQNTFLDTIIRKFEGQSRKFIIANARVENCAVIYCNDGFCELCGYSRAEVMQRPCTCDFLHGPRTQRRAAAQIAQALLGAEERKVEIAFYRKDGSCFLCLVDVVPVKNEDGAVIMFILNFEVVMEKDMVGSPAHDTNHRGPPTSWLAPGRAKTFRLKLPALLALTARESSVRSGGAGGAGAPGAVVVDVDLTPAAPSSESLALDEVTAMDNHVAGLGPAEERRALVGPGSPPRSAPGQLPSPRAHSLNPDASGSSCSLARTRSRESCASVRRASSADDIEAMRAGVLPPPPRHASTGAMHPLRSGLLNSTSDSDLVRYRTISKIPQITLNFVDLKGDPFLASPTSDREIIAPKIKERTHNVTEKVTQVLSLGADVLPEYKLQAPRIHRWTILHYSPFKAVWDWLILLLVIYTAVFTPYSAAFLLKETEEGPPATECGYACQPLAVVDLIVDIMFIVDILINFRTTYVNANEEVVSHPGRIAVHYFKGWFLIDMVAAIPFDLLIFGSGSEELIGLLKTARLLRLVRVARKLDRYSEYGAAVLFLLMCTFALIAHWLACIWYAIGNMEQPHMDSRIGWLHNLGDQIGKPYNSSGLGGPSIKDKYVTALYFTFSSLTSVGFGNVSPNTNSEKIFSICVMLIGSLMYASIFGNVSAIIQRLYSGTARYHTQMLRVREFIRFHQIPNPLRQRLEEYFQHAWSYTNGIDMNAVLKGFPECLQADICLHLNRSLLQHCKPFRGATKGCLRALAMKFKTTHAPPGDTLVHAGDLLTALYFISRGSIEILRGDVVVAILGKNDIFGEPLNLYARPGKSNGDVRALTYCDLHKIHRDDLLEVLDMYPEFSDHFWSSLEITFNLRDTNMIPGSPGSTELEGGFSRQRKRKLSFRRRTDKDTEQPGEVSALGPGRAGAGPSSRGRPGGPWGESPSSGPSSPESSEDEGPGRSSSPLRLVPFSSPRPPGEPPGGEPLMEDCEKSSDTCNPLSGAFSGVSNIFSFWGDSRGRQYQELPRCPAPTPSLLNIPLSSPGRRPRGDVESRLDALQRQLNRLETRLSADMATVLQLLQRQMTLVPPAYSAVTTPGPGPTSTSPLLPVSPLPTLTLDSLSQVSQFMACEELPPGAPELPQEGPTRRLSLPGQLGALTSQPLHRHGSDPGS

| SMILES | EC50 (HCV 1b RNA replicon) | other results |
| --- | --- | --- |
| Cc1cc2nc(CN3CCC[C@H]3C)n(Cc3ccc(Cl)cc3)c2cc1C [EBP273] | > 25 µM | – |
| Cc1ccc2c(c1)nc(CN1CCC[C@H]1CO)n2Cc1ccc(Cl)cc1 [EBP317] | > 25 µM | – |
| Cc1cc2nc(/C=C/C3CCNC3)n(Cc3ccc(Cl)cc3)c2cc1C (stereo not shown) [EBP372] | 2.8 µM | – |
| Cc1cc2nc(/C=C/c3ccccn3)n(Cc3ccc(Cl)cc3)c2cc1C [EBP375] | 8.7 µM | – |
| Cc1cc2nc(/C=C/C3CCCNC3)n(Cc3ccc(Cl)cc3)c2cc1C (stereo not shown) [EBP378] | 4 µM | – |
| Cc1cc2nc(CCc3ccncc3)n(Cc3ccc(Cl)cc3)c2cc1C [EBP417] | 8.1 µM | – |
| Cc1cc2nc(CCC3CCCN3)n(Cc3ccc(Cl)cc3)c2cc1C (stereo not shown) [EBP418] | 9.1 µM | – |
| Cc1ccc2nc(CN3CCC[C@H]3CO)n(Cc3ccc(Cl)cc3)c2c1 [EBP426] | 10 µM | – |
| Cc1cc2nc(C(C)Cc3ccncc3)n(Cc3ccc(Cl)cc3)c2cc1C (stereo not shown) [EBP461] | 4.9 µM | – |
| Cc1cc2nc(CC3CCNCC3)n(Cc3ccc(Cl)cc3)c2cc1C [EBP467] | 3.2 µM | – |
| Cc1cc2nc(CC3CCCCC3)n(Cc3ccc(Cl)cc3)c2cc1C [EBP468] | 8 µM | – |
| Cc1cc2nc(/C=C/C3CCCN3C)n(Cc3ccc(Cl)cc3)c2cc1C (stereo not shown) [EBP470] | 2.5 µM | – |
| Cc1ccc2nc(CN3CCC[C@@H]3C)n(Cc3ccc(Cl)cc3)c2c1 [EBP490] | > 25 µM | – |
| Cc1cc2nc(/C=C/C3CCCN(C)C3)n(Cc3ccc(Cl)cc3)c2cc1C (stereo not shown) [EBP549] | 7.5 µM | – |
| Cc1cc2nc(/C=C/C3CCCN(S(C)(=O)=O)C3)n(Cc3ccc(Cl)cc3)c2cc1C (stereo not shown) [EBP550] | 9.3 µM | – |
| Cc1cc2nc(CCC3CCCN(C)C3)n(Cc3ccc(Cl)cc3)c2cc1C (stereo not shown) [EBP558] | 11 µM | – |
| Cc1cc2nc(CC3CCCNC3)n(Cc3ccc(Cl)cc3)c2cc1C (stereo not shown) [EBP660] | 6.5 µM | – |
| C/C(=C\C1CCNCC1)c1nc2cc(C)c(C)cc2n1Cc1ccc(Cl)cc1 [EBP771] | 7.5 µM | – |
| Cc1cc2nc(C(C)CC3CCNCC3)n(Cc3ccc(Cl)cc3)c2cc1C (stereo not shown) [EBP796] | 4.7 µM | – |
| C/C(=C\C1CCCNC1)c1nc2cc(C)c(C)cc2n1Cc1ccc(Cl)cc1 (stereo not shown) [EBP797] | 6.3 µM | – |
| Cc1cc2nc(C(C)CC3CCCN3)n(Cc3ccc(Cl)cc3)c2cc1C (stereo not shown) [EBP799] | 6 µM | – |
| C/C(=C\C1CCCN1)c1nc2cc(C)c(C)cc2n1Cc1ccc(Cl)cc1 (stereo not shown) [EBP800] | 7.9 µM | – |
| CN1CCC(/C=C/c2nc3cc(-c4ccco4)ccc3n2Cc2ccc(Cl)cc2)C1 (stereo not shown) [EBP801] | 2.1 µM | – |
| CN1CCC(CCc2nc3cc(-c4ccco4)ccc3n2Cc2ccc(Cl)cc2)C1 (stereo not shown) [EBP802] | 8.1 µM | – |
| Clc1ccc(Cn2c(CNC3CCNCC3)nc3ccccc32)cc1 [EBP805] | 11 µM | – |

| SMILES | EC50 (HCV 1b RNA replicon) | other results |
| --- | --- | --- |
| CC1CC(NCc2nc3ccccc3n2Cc2ccc(Cl)cc2)CCN1 (stereo not shown) [EBP809] | 8.3 µM | – |
| Cc1cc2nc(C(C)CC3CCCNC3)n(Cc3ccc(Cl)cc3)c2cc1C (stereo not shown) [EBP847] | 7.9 µM | – |
| CN1CCC(/C=C/c2nc3cc(NC4CCCCC4)ccc3n2Cc2ccc(Cl)cc2)C1 (stereo not shown) [EBP848] | 8.4 µM | – |
| Cc1cc2nc(/C=C3\CCNC(C)C3)n(Cc3ccc(Cl)cc3)c2cc1C (stereo not shown) [EBP869] | 4.6 µM | – |
| Cc1cc2nc(C=C3CC4CCC(C3)N4)n(Cc3ccc(Cl)cc3)c2cc1C [EBP870] | 3.7 µM | – |
| Cc1cc2nc(C=C3CC(C)(C)NC(C)(C)C3)n(Cc3ccc(Cl)cc3)c2cc1C [EBP871] | 2.7 µM | – |
| Cc1cc2nc(CC3CCNC(C)C3)n(Cc3ccc(Cl)cc3)c2cc1C (stereo not shown) [EBP881] | 4.7 µM | – |
| Clc1ccc(Cn2c(CNC3CC4CCCC(C3)N4)nc3ccccc32)cc1 (stereo not shown) [EBP926] | 5.4 µM | – |
| Clc1ccc(Cn2c(CNCC3CCCNC3)nc3ccccc32)cc1 (stereo not shown) [EBP928] | 9.2 µM | – |
| Clc1ccc(Cn2c(/C=C/C3CCN(CC4CCCCC4)C3)nc3cc(Br)ccc32)cc1 (stereo not shown) [EBP933] | 1.8 µM | IC50 (hERG channel): 1.1 µM |
| Clc1ccc(Cn2c(/C=C/C3CCN(C4CCCC4)C3)nc3cc(Br)ccc32)cc1 (stereo not shown) [EBP934] | 5 µM | – |
| Clc1ccc(Cn2c(/C=C\C3CCN(C4CCCC4)C3)nc3cc(Br)ccc32)cc1 (stereo not shown) [EBP935] | 7.7 µM | – |
| Clc1ccc(Cn2c(/C=C/C3CCN(CCCC4CCCCC4)C3)nc3cc(Br)ccc32)cc1 (stereo not shown) [EBP936] | 4.5 µM | – |
| Clc1ccc(Cn2c(/C=C\C3CCN(CCCC4CCCCC4)C3)nc3cc(Br)ccc32)cc1 (stereo not shown) [EBP937] | 3.7 µM | – |
| Clc1ccc(Cn2c(COCC3CCNCC3)nc3ccccc32)cc1 [EBP977] | 8.9 µM | – |
| Clc1ccc(Cn2c(COCC3CCCNC3)nc3ccccc32)cc1 (stereo not shown) [EBP978] | 12 µM | – |
| Clc1ccc(Cn2c(COCCC3CCNCC3)nc3ccccc32)cc1 [EBP995] | 5.3 µM | – |
| CNC(=O)c1c(-c2ccc(F)cc2)oc2cc(N(CCO)S(C)(=O)=O)c(C3CC3)cc12 [HCV796] | – | additivity or synergy with clemizole [1]: additivity |
| CC(C)(C)OC(=O)N[C@H]1CCCCC/C=C\[C@@H]2C[C@@]2(C(=O)NS(=O)(=O)C2CC2)NC(=O)[C@@H]2C[C@@H](OC(=O)N3Cc4cccc(F)c4C3)CN2C1=O [ITMN-191] | – | additivity or synergy with clemizole [1]: additivity |
| CC(C)[C@H](N)C(=O)O[C@@H]1[C@@H](CO)O[C@@H](n2ccc(N)nc2=O)[C@]1(C)O [NM283, valopicitabine] | – | additivity or synergy with clemizole [1]: additivity |
| CC(C)(C)NC(=O)N[C@H](C(=O)N1C[C@H]2[C@@H]([C@H]1C(=O)NC(CC1CCC1)C(=O)C(N)=O)C2(C)C)C(C)(C)C (stereo partly shown) [SCH503034, boceprevir] | – | additivity or synergy with clemizole [1]: strong synergy |
| CCC[C@H](NC(=O)[C@@H]1[C@H]2CCC[C@H]2CN1C(=O)[C@@H](NC(=O)[C@@H](NC(=O)c1cnccn1)C1CCCCC1)C(C)(C)C)C(=O)C(=O)NC1CC1 [VX-950, telaprevir] | – | additivity or synergy with clemizole [1]: strong synergy |
| Clc1ccc(Cn2c(CN3CCCC3)nc3ccccc32)cc1 [clemizole] | > 20 µM | HCV viral load in the serum (HCV (genotype 4)): completely, or nearly, undetectable; Viral Load Day 28, Patient 2, clemizole only arm (HCV genotype 4; Day 1=150,000 IU/mL): 480,000 IU/mL; Viral Load Day 28, Patient 1, clemizole only arm (HCV genotype 4; Day 1=330,000 IU/mL, clemizole 100 mg po BID and placebo): 530,000 IU/mL; viral load (HCV genotypes 1 and 2; 100 mg po BID, one month, 7 genotype 1b and 3 genotype 2a patients): no reduction; ALT levels (HCV genotypes 1 and 2; 100 mg po BID, over the treatment period): did decline; viral loads (HCV genotypes 1 and 2; one genotype 2 patient, 200 mg BID, one month): did not decrease; EC50 [2]: 8 µM; 1b EC50 (HCV 1b RNA replicon; 48 hours): does not show significant activity |
| NC(=O)c1ncn([C@@H]2O[C@H](CO)[C@@H](O)[C@H]2O)n1 [ribavirin] | – | additivity or synergy with clemizole [1]: additivity |

Reference: patent US8975247B2, “Methods and compositions of treating a flaviviridae family viral infection” (priority 2009, dated 2015)
